Measured values published in PMC6679423 (International Journal of Molecular Sciences, 2019).

Chains of the proteins cited; added tags and fusions are not shown.
UniProt P10635, whole entry: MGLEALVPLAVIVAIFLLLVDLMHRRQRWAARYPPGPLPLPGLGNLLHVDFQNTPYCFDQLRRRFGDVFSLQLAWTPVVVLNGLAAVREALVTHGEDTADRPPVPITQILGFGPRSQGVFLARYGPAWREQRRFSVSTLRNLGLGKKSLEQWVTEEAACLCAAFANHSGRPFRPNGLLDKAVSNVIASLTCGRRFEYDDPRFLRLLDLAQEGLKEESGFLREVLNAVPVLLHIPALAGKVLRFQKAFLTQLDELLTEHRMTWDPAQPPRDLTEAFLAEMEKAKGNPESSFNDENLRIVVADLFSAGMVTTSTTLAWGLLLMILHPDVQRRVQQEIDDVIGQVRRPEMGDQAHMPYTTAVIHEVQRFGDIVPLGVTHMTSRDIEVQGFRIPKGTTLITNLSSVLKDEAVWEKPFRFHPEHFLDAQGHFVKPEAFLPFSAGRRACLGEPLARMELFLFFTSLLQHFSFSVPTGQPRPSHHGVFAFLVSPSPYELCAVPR

Molecular target: human recombinant CYP2D6 (Homo sapiens, UniProt P10635)
Assay: Vandetanib oxidation by human recombinant CYP2D6 (Supersomes)
Details: CYP2D6, oxidation to N-desmethylvandetanib

COc1cc2c(Nc3ccc(Br)cc3F)ncnc2cc1OCC1CCN(C)CC1 [vandetanib, N-(4-bromo-2-fluorophenyl)-6-methoxy-7-[(1-methylpiperidin-4-yl)-methoxy]-quinazolin-4-amine, reference compound]
K0.5, substrate concentration corresponding to half-maximal velocity: 84.36 ± 18.14 µM
